According to publication PMC3689823:

Target: YFP-Clu (human)
Experiment: FRET or BRET; receptor (acceptor) photobleaching FRET in co-transfected HEK293T cells, CFP donor and YFP receptor, bleached at 515 nm for 60 s

FRET efficiency: 33.7%
Substance: Aβ42-CFP (from UniProt P05067 672-713) (peptide)
